These results are taken from PubChem BioAssay AID540275 (National Center for Advancing Translational Sciences (NCATS), 2011).

Chains of the proteins cited; added tags and fusions are not shown.
UniProt Q8NER1, whole entry: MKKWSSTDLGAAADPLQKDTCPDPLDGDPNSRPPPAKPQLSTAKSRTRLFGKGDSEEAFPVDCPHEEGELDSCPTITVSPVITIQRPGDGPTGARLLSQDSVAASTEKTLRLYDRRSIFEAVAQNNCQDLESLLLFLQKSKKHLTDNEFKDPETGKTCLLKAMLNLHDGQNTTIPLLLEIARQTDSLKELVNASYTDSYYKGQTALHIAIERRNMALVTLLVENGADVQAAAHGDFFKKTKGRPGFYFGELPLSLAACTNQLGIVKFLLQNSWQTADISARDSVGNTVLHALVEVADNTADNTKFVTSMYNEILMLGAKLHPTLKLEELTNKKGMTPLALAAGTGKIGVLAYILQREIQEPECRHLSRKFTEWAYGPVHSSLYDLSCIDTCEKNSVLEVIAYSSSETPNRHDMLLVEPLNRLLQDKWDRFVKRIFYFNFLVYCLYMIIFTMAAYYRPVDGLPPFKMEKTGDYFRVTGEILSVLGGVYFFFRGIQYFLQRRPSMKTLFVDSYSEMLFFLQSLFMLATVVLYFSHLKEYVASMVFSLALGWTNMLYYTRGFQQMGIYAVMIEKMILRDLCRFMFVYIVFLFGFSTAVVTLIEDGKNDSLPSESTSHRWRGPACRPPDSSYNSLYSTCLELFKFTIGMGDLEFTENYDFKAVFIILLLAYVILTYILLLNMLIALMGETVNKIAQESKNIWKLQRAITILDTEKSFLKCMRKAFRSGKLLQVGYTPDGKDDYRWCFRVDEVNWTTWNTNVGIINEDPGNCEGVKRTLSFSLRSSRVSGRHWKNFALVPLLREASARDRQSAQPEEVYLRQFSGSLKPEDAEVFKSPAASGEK

This is a selection; strong and weak results do not stand in their true shares. Results filed as inconclusive are left out. The source made the active and inactive calls. Cut-off read from the data, not from the text of the source: active = activation above about 80%; inconclusive = between about 30% and that limit; inactive = weaker than that.

This experiment has as its target Transient receptor potential cation channel subfamily V member 1 (Homo sapiens) (UniProt Q8NER1). In words: HTS Assay for Compounds that Act as Agonists of the Vanilloid Receptor 1. Note: 0% is about no effect. The following applies: TRPV1-expressing cells, Fluo-8 calcium influx, agonist mode; at 8.33 µM; active compounds read high. From the text: The transient receptor potential ion channel, family V, number 1, (TRPV1) is one of the most important molecular transducers of painful stimuli and a potential target for analgesic drug development. Although recent clinical trials with orthosteric antagonists have not produced a successful drug because of a hyperthermia side effect and their tendency to block thermal noxious pain, this ion channel is undeniably well placed in the pain pathway, and the idea of blocking pain signals before they enter the CNS is an excellent concept and of proven efficacy when TRPV1 agonists are used. We propose a new approach involving allosteric modulation to impose an activity-dependent constraint within the context of inflammation and tissue damage that would alter the responsiveness of the channel in a way that an orthosteric vanilloid antagonist cannot achieve. We believe that the allosteric modulator approach has not been explored for this target. The main goal of this proposal is to identify additional, new, potent allosteric modulators of TRPV1 that can be used to investigate TRPV1 function. Our recent report provides evidence of proof of concept, but the compounds are just at the edge of utility in terms of potency. […] The question of whether they can be used as analgesic agents is complex, but if suitable compounds are identified then testing for analgesic properties will be conducted. NIH Chemical Genomics Center [NCGC] NIH Molecular Libraries Probe Centers Network [MLPCN] MLPCN Grant: MH089480-1A1 Assay Submitter (PI): Michael Iadarola, National Institute of Dental and Cranofacial Research
Upon TRPV1 activation in TRPV1 cells, the channel opens and extracellular cations flow through the channel into the cytosol. A calcium binding dye (Fluo-8) becomes fluorescent when bound to calcium. This dye is pre-loaded into cells and is used as a marker for calcium influx. The amount of accumulated calcium is precisely quantified using the FDSS kinetic reader and the calcium dye. For the HTS assay, freshly prepared cells are plated at a density of 2000/well in 3 ul medium in 1536-well plates and cultured overnight at 35.5C. Cells will be loaded with 1 ul of the homogeneous calcium dye (ABD Bioquest) at room temperature for 40 to 90 minutes. Plates will be loaded into the FDSS kinetic reader and a 1 sec / cycle for 10 second baseline signal will be measured. Compound library will then be added with a pintool at 23 nl and measured kinetically for 3 minutes. This portion of the read is considered the agonist portion of the screen. Following the 3 minutes of incubation, an on board pipettor will deliver 1 ul of capsaicin for a final concentration equal to the EC20. Signal will be measured kinetically for an additional 2 minutes. This portion of the read is considered the allosteric enhancer portion of the screen. The FDSS reader has a standard filter set capable of measuring calcium bound Fluo-8 (ex=480 and em=520 nm).
Turning to `CC1=C2N=C(C=C3N=C(C(C)=C4[N-][C@@](C)([C@@H]5N=C1[C@](C)(CCC(=O)NC[C@@H](C)OP(=O)([O-])O[C@H]1[C@@H](O)[C@@H](n6cnc7cc(C)c(C)cc76)O[C@@H]1CO)[C@H]5CC(N)=O)[C@@](C)(CC(N)=O)[C@@H]4CCC(N)=O)[C@@](C)(CC(N)=O)[C@@H]3CCC(N)=O)C(C)(C)[C@@H]2CCC(N)=O.[C-]#N.[Co+3]`, the activation is inactive: -1.81%.
Next, `O=[N+]([O-])c1cc([N+](=O)[O-])c(Nc2nnnn2CCO)c([N+](=O)[O-])c1`: inactive: -5.3%; `CCCOc1ccc(NP(C)(=O)Oc2ccc(Cl)cc2)cc1` (stereo not drawn): inactive: 1.12%; `CP(=O)(Nc1ccc(SC(F)(F)F)cc1)Oc1ccccc1` (stereo not drawn): inactive: 13.9%.
`CN1CCCCC1COC(=O)C1(O)c2ccccc2CCc2ccccc21` (stereo not drawn): the activation was inactive: -8.82%.
Next, `COc1ccccc1OP(C)(=O)Nc1c(C)cccc1C` (stereo not drawn): inactive: -3.55%; `O=[N+]([O-])c1cc([N+](=O)[O-])c(-n2nnc3ccccc32)c([N+](=O)[O-])c1`: inactive: -1.62%; `Cc1nc2ccc3ccccc3c2s1.O=[N+]([O-])c1cc([N+](=O)[O-])c(O)c([N+](=O)[O-])c1`: inactive: 4.08%.
For `CCOC(=O)c1ccc(NP(C)(=O)Oc2cc(C)cc(C)c2)cc1` (stereo not drawn) the value was inactive: 2.9%; for `Cc1cc(C)cc(OP(C)(=O)Nc2ccc(C)cc2C)c1` (stereo not drawn), inactive: -1.34%.
Next, `COc1ccccc1OP(C)(=O)Nc1cccc(Br)c1` (stereo not drawn): inactive: -3.51%.
Consider `Cc1ccc(C)c(NP(C)(=O)Oc2ccccc2)c1` (stereo not drawn), for which the activation was inactive: 6.6%.
Take `Cc1cc(C)cc(OP(C)(=O)Nc2ccccn2)c1` (stereo not drawn): the activation is inactive: -1.92%.
For `CP(=O)(Nc1cccc(Br)c1)Oc1ccccc1` (stereo not drawn) the value was inactive: 21.1%; for `CC1=NCCc2c1[nH]c1ccccc21.O=[N+]([O-])c1cc([N+](=O)[O-])c(O)c([N+](=O)[O-])c1`, inactive: -1.66%.
Next, `O=[N+]([O-])c1ccc2c(c1)C=Nc1ccccc1O2`: inactive: 4.25%.
As to `CC(C)(C)c1ccc(OP(C)(=O)Nc2ccc(SC(F)(F)F)cc2)cc1` (stereo not drawn), the activation is inactive: 2.86%.
Next, `Cc1cccc(C)c1OP(C)(N)=O` (stereo not drawn): inactive: -2.51%.
For `O=[N+]([O-])c1cc([N+](=O)[O-])c(Nc2cccnc2)c([N+](=O)[O-])c1`, the activation is inactive: 2.86%.
Consider `Cc1cc(C)cc(OP(C)(N)=O)c1` (stereo not drawn), for which the activation is inactive: -2.81%.
Next, `COc1ccccc1OP(C)(=O)Nc1cc(Cl)ccc1C` (stereo not drawn): inactive: -1.6%; `COc1ccc(OP(C)(=O)Nc2cccc(F)c2)cc1` (stereo not drawn): inactive: -2.41%.
Turning to `COc1ccccc1OP(C)(=O)Nc1ccc(C)cc1` (stereo not drawn), the activation is inactive: -5.56%.
On to `Cc1ccc(NP(C)(=O)Oc2ccccc2)c(C)c1` (stereo not drawn), for which the activation is inactive: -1.67%.
For the compound `CCOC(=O)c1ccc(NP(C)(=O)Oc2ccccc2)cc1` (stereo not drawn), the activation was inactive: -3.14%.
Consider `CCN(CC)CCCOC(=O)C(O)(c1ccccc1)c1ccccc1`, for which the activation is inactive: -0.281%.
Turning to `CP(=O)(NC(=O)Nc1ccccc1)Oc1ccccc1` (stereo not drawn), the activation is inactive: -0.0434%.
In the case of `Cc1cc(C)cc(OP(C)(=O)Nc2ccc(SC(F)(F)F)cc2)c1` (stereo not drawn), the activation is inactive: 8.38%.
Next, `CP(=O)(Nc1ccc(SC(F)(F)F)cc1)Oc1ccc(Cl)cc1` (stereo not drawn): inactive: 26.4%; `Cc1cccc(C)c1OP(C)(=O)Nc1ccc(SC(F)(F)F)cc1` (stereo not drawn): inactive: 10.3%; `CP(=O)(Nc1ccccn1)Oc1ccc(Cl)cc1` (stereo not drawn): inactive: 2.52%.
For `CCOC(=O)c1ccc(NP(C)(=O)Oc2ccc(OC)cc2)cc1` (stereo not drawn) the value was inactive: -4.8%.
Next, `CCOP(C)(=S)SCC(=O)NC(C)C(=O)O` (stereo not drawn): inactive: -1.47%.
On to `CP(=O)(Nc1ccccc1Br)Oc1ccccc1` (stereo not drawn), for which the activation is inactive: -4.74%.
For `COc1ccccc1OP(C)(=O)Nc1ccccc1` (stereo not drawn), the activation was inactive: 1.23%.
In the case of `CP(=S)(Nn1cnnc1)Oc1ccccc1` (stereo not drawn), the activation was inactive: 1.37%.
Next, `CCOC(=O)c1ccc(NP(C)(=O)Oc2ccc(Cl)cc2)cc1` (stereo not drawn): inactive: 4.99%; `COc1ccccc1OP(C)(=O)Nc1c(C)n(C)n(-c2ccccc2)c1=O` (stereo not drawn): inactive: -1.65%; `O=C(OCCCN1CCCC1)C(O)(c1ccccc1)C1CCCCC1` (stereo not drawn): inactive: 2.84%.
In the case of `CP(=O)(Oc1ccccc1)N1CCOC1=O` (stereo not drawn), the activation is inactive: 6.65%.
For the compound `CCc1ccc(OP(C)(=O)Nc2cccnc2)cc1` (stereo not drawn), the activation is inactive: 4.34%.
Next, `CCN(CC)CC(O)COC(=O)C(O)(c1ccccc1)C1CCCCC1` (stereo not drawn): inactive: 3.73%.
For `COc1ccc(OP(C)(=O)Nc2ccc(Br)cc2)cc1` (stereo not drawn) the value was inactive: 2.93%; for `CN(C)C(=O)c1c([N+](=O)[O-])cc([N+](=O)[O-])cc1[N+](=O)[O-]`, inactive: 0.13%; for `COc1ccccc1OP(C)(=O)Nc1ccccc1Br` (stereo not drawn), inactive: -1.04%.
For `CC(C)(C)c1ccc(OP(C)(=O)O)cc1` the value was inactive: 0.646%; for `CP(=O)(Nc1ccc(Cl)cc1)Oc1ccc(F)cc1` (stereo not drawn), inactive: 5.5%.
Consider `COc1ccc(OP(C)(=O)Nc2ccccn2)cc1` (stereo not drawn), for which the activation is inactive: -3.26%.
Take `CN(C)CCOC(=O)C(O)(c1ccccc1)C1CCCC1` (stereo not drawn): the activation was inactive: 1.35%.
As for `COc1ccccc1OP(C)(=O)Nc1ccc(Br)cc1` (stereo not drawn), the activation was inactive: -15.2%.
For `CP(=O)(Nc1ccccn1)Oc1ccccc1` (stereo not drawn) the value was inactive: -2.71%; for `COc1ccccc1OP(C)(=O)Nc1ccc(C)cc1C` (stereo not drawn), inactive: -1.64%; for `CCc1ccc(OP(C)(=O)O)cc1`, inactive: -4.79%.
Take `Cc1c(NP(C)(=O)Oc2ccc(C(C)C)cc2)c(=O)n(-c2ccccc2)n1C` (stereo not drawn): the activation is inactive: -1.47%.
Next, `O=[N+]([O-])c1cc([N+](=O)[O-])c(Nc2ccccn2)c([N+](=O)[O-])c1`: inactive: -0.412%.
Next, `COc1ccccc1OP(C)(=O)Nc1ccc(C)c(C)c1` (stereo not drawn): inactive: 0.91%.
For the compound `COc1ccc(OP(C)(=O)Nc2ccccc2Br)cc1` (stereo not drawn), the activation is inactive: 2.16%.
For `Cc1cc(C)cc(OP(C)(=O)Nc2cccc(C(F)(F)F)c2)c1` (stereo not drawn), the activation was inactive: 15.6%.
Next, `CP(=O)(Nc1ccc(Cl)cc1Cl)Oc1ccccc1` (stereo not drawn): inactive: 0.742%; `CP(=O)(OCCOc1ccccc1)OCCOc1ccccc1`: inactive: 3.79%.
Next, `Cc1nc2ccc3ccccc3c2o1.O=[N+]([O-])c1cc([N+](=O)[O-])c(O)c([N+](=O)[O-])c1`: inactive: -1.1%; `CCOC(=O)c1ccc(NP(C)(=O)Oc2ccc(F)cc2)cc1` (stereo not drawn): inactive: 2.94%; `COc1ccc(OP(C)(=O)Nc2ccc(SC(F)(F)F)cc2)cc1` (stereo not drawn): inactive: 12.3%.
Next, `CP(=O)(Nc1ccccc1)Oc1ccc(F)cc1` (stereo not drawn): inactive: 6.49%.
`CCCCCOc1ccc(NP(C)(=O)Oc2ccc(Cl)cc2Cl)cc1` (stereo not drawn): the activation was inactive: 8.79%.
Next, `CCN(CC)CCCOC(=O)C(O)(c1ccccc1)C1CCCCC1` (stereo not drawn): inactive: -4.72%; `CP(=O)(Nc1ccccc1F)Oc1ccccc1` (stereo not drawn): inactive: -0.748%; `CC(C)c1ccc(OP(C)(=O)Nc2ccc(SC(F)(F)F)cc2)cc1` (stereo not drawn): inactive: 4.56%.
Take `O=C(OCCN1CCN(CCOCc2ccccc2)CC1)C(O)(c1ccccc1)c1ccccc1`: the activation was inactive: -1.23%.
With `CCOP(C)(=S)SCC(=O)NC(C)(CC)C(=O)O` (stereo not drawn), the activation was inactive: 0.245%.
With `CP(=O)(Nc1ccc(SC(F)(F)F)cc1)Oc1ccc(F)cc1` (stereo not drawn), the activation was inactive: 17%.
For the compound `Cc1ccccc1NP(C)(=O)Nc1ccccc1C`, the activation was inactive: -0.661%.
`CP(=O)(Nc1ccc2c(c1)OCCO2)Oc1ccccc1` (stereo not drawn): the activation is inactive: 5.62%.
For `CN(C)CCOC(=O)C(O)(c1ccccc1)C1CCCCC1` (stereo not drawn) the value was inactive: 2.36%; for `COc1ccc(NP(C)(=O)Oc2ccccc2OC)cc1` (stereo not drawn), inactive: 2.72%.
Next, `COc1ccc(OP(C)(=O)Nc2cccc(Br)c2)cc1` (stereo not drawn): inactive: 4.02%.
Next, `O=[N+]([O-])c1ccc(OP2(=O)COCCO2)cc1` (stereo not drawn): inactive: 1.64%.
Regarding `Cc1cc(-c2cccc3ccccc23)c(C)cn1.O=[N+]([O-])c1cc([N+](=O)[O-])c(O)c([N+](=O)[O-])c1`, the activation was inactive: 8.04%.
